Binding of CDR-mutated scFvs to a peptide of the spike HR2 region

Source: Engelhart et al. 2022 (doi:10.1038/s41597-022-01779-4), MIT Lincoln Laboratory and A-Alpha Bio; data file from the FLAb repository.

Target: peptide PDVDLGDISGINAS, taken from heptad repeat 2 (HR2) of SARS-CoV-2 spike.

Parent: Ab-14, a human scFv built as VH, a 15-residue (Gly4Ser)3 linker, VL. Only the CDRs of the light chain vary.
VH: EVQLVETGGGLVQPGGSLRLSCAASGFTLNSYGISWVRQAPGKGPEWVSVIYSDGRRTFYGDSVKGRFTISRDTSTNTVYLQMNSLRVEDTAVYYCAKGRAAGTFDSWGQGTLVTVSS
VL: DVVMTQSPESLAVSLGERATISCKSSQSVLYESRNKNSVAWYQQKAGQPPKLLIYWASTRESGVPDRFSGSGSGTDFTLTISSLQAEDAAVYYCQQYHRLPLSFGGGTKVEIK

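In library AAYL50, one, two or three CDR residues were substituted; doubles and triples were drawn at random. Affinity was read by AlphaSeq, a pooled yeast mating assay with surface-displayed partners. Pairs that bind mate more often; barcode pairs of the diploids are counted by sequencing. Scores were corrected for input abundance and mapped to Kd with protein pairs of known affinity run in the same pool. Mating was done three times.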

Changes read parent residue, position, new residue, counted from the first residue of the VL shown.
Scale: log10 of Kd in nM, estimated from mating counts; low values are strong binders.
Averages over replicates are reported, and they cover detected replicates only.
Where no diploid with the target was found in any replicate, the entry reads "not detected": below detection, most likely a poor binder, though not proof of it.
Parent in this assay: reference entry 0.65, copy in this library 1.68.
Three control strains display no target. For library AAYL50, 18% of the pairings with them gave a signal, with a median of 4.19 and one signal in twenty below 2.99, so weak values seen in few replicates may be background.

changes	mean log10 Kd (nM)	seen in
S26N+S28P+K36S	1.93	3/3
N37Q+V39T+H98N	not detected	0/3
K24H+S62L+R99I	1.52	3/3
N37S+S38N+R99C	4.17	1/3
W56G+T59W+R99H	0.31	3/3
K36F+R60G+S62M	not detected	0/3
Q95P+H98E+S103H	not detected	0/3
S25F+R34A+A40W	3.06	1/3
N37C+A57M+R99H	2.50	3/3
R34T+A57Y	3.01	1/3
Q27F+T59L+S62N	1.10	3/3
R34D+N35S+W56R	0.16	3/3
K36H+Q96N+L100W	5.94	2/3
K36G+V39S+S62M	3.68	2/3
E32T+T59P	not detected	0/3
Q27F+A40I	not detected	0/3
V29W+T59N+E61K	not detected	0/3
V39P+Q96M	4.89	1/3
V39Q+Q95R+H98G	not detected	0/3
E32W+N35H+A57V	4.79	2/3
V29H+N35A	1.49	3/3
R34G+N35T+H98D	1.15	3/3
E32N+S38Q+W56E	0.92	3/3
S33Q+Y97K+H98G	not detected	0/3
Q27N+S28M+S33L	4.29	2/3
N35K+Q95M+P101I	not detected	0/3
S26K+Q95A+P101R	not detected	0/3
E32G+T59I+Q96M	2.54	3/3
S26H+K36W+R99L	3.09	3/3
L30G+R60S+S62Q	not detected	0/3
V29G+N37G+A57P	not detected	0/3
E32M+S38V+R60D	4.32	1/3
Y31K+S38D+S58N	1.94	3/3
A40R+H98W	not detected	0/3
N35M+R60K+S103W	1.55	3/3
S38M+V39D+S103C	not detected	0/3
L30C+E32Q+A40N	not detected	0/3
Y31A+W56Q+Q96L	not detected	0/3
Q27W+S33M+K36M	2.58	3/3
V29D+L30S+S103T	0.61	3/3
V29F+K36C+S58L	5.03	2/3
S25C+L30K+S58N	2.34	3/3
S25F+S28D+L102W	3.84	1/3
N35R+W56P+H98T	not detected	0/3
Y31N+S38N+P101Y	0.95	3/3
W56G+T59H+Q95Y	0.26	3/3
W56K+Y97F+H98C	not detected	0/3
K24C+Y31R+A57E	not detected	0/3
S33K+S38R+L100D	not detected	0/3
R34Q+N35G	0.58	3/3
S58I+H98V	3.81	3/3
S28G+Y31A+S103W	1.93	3/3
E32Q+Q95V+R99Q	not detected	0/3
S25F+V39W+S103M	2.75	2/3
S58A+R60Y+Q96T	5.78	2/3

Again, the first 6 entries without any signal:

{"changes": "N37Q+V39T+H98N", "mean log10 Kd (nM)": "not detected", "seen in": "0/3"}
{"changes": "K36F+R60G+S62M", "mean log10 Kd (nM)": "not detected", "seen in": "0/3"}
{"changes": "Q95P+H98E+S103H", "mean log10 Kd (nM)": "not detected", "seen in": "0/3"}
{"changes": "E32T+T59P", "mean log10 Kd (nM)": "not detected", "seen in": "0/3"}
{"changes": "Q27F+A40I", "mean log10 Kd (nM)": "not detected", "seen in": "0/3"}
{"changes": "V29W+T59N+E61K", "mean log10 Kd (nM)": "not detected", "seen in": "0/3"}